Sequences of proteins named here, by UniProt entry; tags and fusion partners are left off.
UniProt P31389, whole entry, looked up: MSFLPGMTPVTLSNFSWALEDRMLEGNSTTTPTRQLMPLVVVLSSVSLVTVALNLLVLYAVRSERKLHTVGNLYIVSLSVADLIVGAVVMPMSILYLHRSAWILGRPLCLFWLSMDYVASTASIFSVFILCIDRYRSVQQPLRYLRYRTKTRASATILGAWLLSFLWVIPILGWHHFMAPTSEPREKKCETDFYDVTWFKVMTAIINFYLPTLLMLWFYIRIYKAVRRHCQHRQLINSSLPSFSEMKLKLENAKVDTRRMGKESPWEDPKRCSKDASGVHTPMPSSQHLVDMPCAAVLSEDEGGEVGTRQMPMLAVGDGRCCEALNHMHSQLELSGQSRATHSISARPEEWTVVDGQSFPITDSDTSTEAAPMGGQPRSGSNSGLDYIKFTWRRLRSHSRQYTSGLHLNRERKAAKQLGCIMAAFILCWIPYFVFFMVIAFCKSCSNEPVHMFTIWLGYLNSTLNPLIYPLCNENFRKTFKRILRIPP

In ChEMBL document CHEMBL1152307, “Antimycobacterial and H1-antihistaminic activity of 2-substituted piperidine derivatives” (Bioorg Med Chem, 2008):

Target: Histamine H1 receptor (Cavia porcellus) (UniProt P31389)
Assay: Antagonist activity at guinea pig ileum histamine H1 receptor at 0.3 x 10'4 M
Format: functional, tissue-based

Row | SMILES | pKb
1 | CN1CC[C@H](N(Cc2ccccc2)c2ccccc2)CC1(C)C | 7.93
2 | CN1CCC(N(Cc2ccccc2)c2ccccc2)CC1 [BAMIPINE] | 8.55
